# Screens deposited in PubChem by Broad Institute.
# ERp5 block: blocks human ERp5 reductase activity on insulin. 0.05% of 350,000 active. inhibition, % at 9.99 µM. Q15084. ERp5 insulin aggregation, absorbance 650 nm, 90 min;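 active means mean replicate inhibition above about 25%, with every replicate also reaching it, limit read from the data, passing the limit was not always enough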
# FGF22 binding: FGF22 (human) thermal shift binding; Q9HCT0; recombinant FGF22 thermal shift, SYPRO orange fluorescence; percent of sucrose octasulfate shift, DMSO zero; activity (Tm shift, normalised), % at 9.99 µM; 1.5% of 340,000 active;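 active means mean Tm shift, scaled 0 neutral to 100 positive control, at about 1.3% or above, every replicate too, limit read from the data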
# UUG fidelity: modulators of yeast start codon fidelity, primary screen, whole organism, S. cerevisiae, single point, plate reader | AID 602363, 2012 | actives 0.13% (n = 350,000) | activity score, % at 18.7 µM | S. cerevisiae UUG-firefly luciferase reporter, luminescence/redox ratio;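 active means replicate mean at a twofold rise or more, about +100% in these data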;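 further: firefly luciferase made from a UUG start codon reports start codon fidelity; reporter light over untreated wells divided by growth signal over untreated wells; some hits fall short of that in this replicate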
# ARNT-TACC3 inh: ARNT/TACC3 interaction disruption; 0.66% of 390,000 active; AlphaScreen His-ARNT PAS-B/GST-TACC3 binding, luminescence; TACC3 fragment carries E629A point mutation; inhibition, % at 9.99 µM;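 active means mean inhibition of replicates at least 50% and at least half of replicates each reaching 50%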;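 further: 0% = complete ARNT plus TACC3 wells and 100% = ARNT alone without TACC3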
# PglD inh: blocks C. jejuni PglD acetyltransferase activity; purified PglD enzyme, DTNB colorimetric CoA detection; inhibition, % at 12.5 µM; 0.098% of 360,000 active; AID 602405; in the data active means inhibition above about 16%, passing the limit was not always enough
# PDI inh: PDI (human) enzyme inhibition; AID 588391; inhibition, % at 10 µM; PDI insulin aggregation turbidity, A650, 90 min; P07237; 0.052% of 350,000 active;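 active means mean inhibition across replicates of 30% or more, whatever share of single replicates reach that level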
# The depositor's hits bear a star; / = no result given. The list is not random: actives were taken first. Their share in the collection is about 1.9%.
SMILES,ERp5 block,FGF22 binding,UUG fidelity,ARNT-TACC3 inh,PglD inh,PDI inh
COc1cccc(C(=O)NCC(=O)OCC(=O)c2ccccc2)c1,/,/,/,-6.9,/,1.1
O=C(c1cnccn1)N1CC[C@@H]2[C@H]1c1cc(C#Cc3cccnc3)ccc1N[C@@H]2CO,0.4,0.0,-16.7,5.1,-2.3,/
CC(C)N1CCN(Cc2ccc3c(c2)Cc2ccccc2-3)CC1CCO (stereo not given),1.4,42.9*,-6.8,2.3,0.7,1.3
CC(=O)c1cccc(CN2CCN(C(C)C)C(CCO)C2)c1 (stereo not given),2.9,43.5*,/,/,/,-3.5
CC(Cl)c1cc(-c2ncc(C(F)(F)F)cc2Cl)no1 (stereo not given),1.6,43.6*,/,/,/,0.5
COc1cc(C)c(/C=C(\C#N)C(=O)Nc2cccc(C)c2)cc1C(C)C,1.2,43.7*,/,-8.6,/,-5.7
Cc1ccc(C(=O)Nc2nc(-c3ccccc3)c(-c3ccccc3)o2)cc1,/,/,/,/,/,4.5
Cc1ccc(C(=O)Nc2c(C)cc(-c3ccccc3)oc2=O)cc1,0.3,43.1*,/,-0.7,/,-0.2
Cc1ccc(-c2nnc(SCC(=O)NC3CC3)n2N)cc1,-1.3,0.3,10.4,-6.2,2.4,2.0
Cc1ccc(-c2nnc(SCC(=O)NC3CCCC3)n2N)cc1,1.2,44.1*,-18.4,3.1,-3.0,-1.6
CNC(=O)C[C@@H]1C(=O)N(CCc2ccccc2)CC1(C)C,-0.6,43.3*,/,/,/,-3.3
CNC(=O)C[C@@H]1C(=O)N(Cc2ccccc2)CC1(C)C,5.4,0.1,/,/,/,-6.5
O=C1N=c2ccccc2=C1c1sc(NS(=O)(=O)Cc2ccccc2)nc1O,-1.0,1.3*,-13.6,0.6,-5.4,-3.3
O=C1N=c2ccccc2=C1c1sc(NS(=O)(=O)c2ccccc2)nc1O,1.0,0.9,/,13.8,/,0.0
CCOC(=O)c1ccc(NC(=O)C(=O)NCc2ccccn2)cc1,-1.8,0.2,-24.9,/,7.4,10.5
CCOC(=O)c1c(C)c(C(=O)NCc2ccccn2)c(C)n1CC,-4.2,0.0,/,47.7*,/,2.1
c1cnc(N2CCN(c3nc4ccccc4n4cnnc34)CC2)nc1,/,/,-5.6,48.9*,0.6,-9.8
Cc1ccc(S(=O)(=O)NNC(=O)C23CCC(CC2)C3)cc1,1.5,42.9*,-6.7,/,-3.6,4.6
COc1ccc(-c2cc3nc(CCl)[nH]c(=O)c3s2)cc1,0.0,-0.2,-63.9,-5.1,-0.7,39.4*
COc1ccc(-c2cc3nc[nH]c(=O)c3s2)cc1,/,/,-35.8,-4.5,-0.1,-2.9
C[C@@H]1CN([C@@H](C)CO)C(=O)c2cc(NS(=O)(=O)c3cccs3)ccc2O[C@@H](C)CCCCO[C@@H]1CN(C)S(=O)(=O)c1ccc(F)cc1,-0.4,-1.1,-0.8,-15.5,2.3,/
O=C(NC1CCCC1)c1ncn[nH]1,/,/,-8.1,22.4*,8.3,9.8
Cc1ccc(C)c(NC(=O)c2ncn[nH]2)c1,/,/,-15.7,-1.4,-6.6,-3.9
CCN(CC)CCCN1C(=O)CSC1c1ccc([N+](=O)[O-])cc1 (stereo not given),1.5,43.4*,/,-5.9,/,-0.2
COc1cc(C2NCCc3c2[nH]c2ccccc32)ccc1OC(C)C (stereo not given),1.1,43.9*,1.1,6.0,-7.1,/
COc1cc([C@H]2c3[nH]c4ccccc4c3C[C@H]3C(=O)N4[C@@H](c5cc(OC)c(OC)c(OC)c5)c5[nH]c6ccccc6c5C[C@H]4C(=O)N23)cc(OC)c1OC,/,/,-9.1,-5.1,-0.1,-7.2
COc1ccc(S(=O)(=O)N2CCN(C(=S)NC3CCCCC3)CC2)cc1,-6.7,43.3*,/,-2.3,/,1.4
COc1ccccc1Nc1nc(N)nc(CN2CCN(Cc3ccccc3)CC2)n1,/,/,-34.9,19.1,0.5,-1.3
CCOc1ccc(Nc2nc(N)nc(CN3CCN(c4ccccc4F)CC3)n2)cc1,0.2,43.7*,-26.3,10.6,/,0.1
COc1ccc(N2CCN(Cc3nc(N)nc(Nc4ccccc4OC)n3)CC2)cc1,/,/,-3.7,49.8*,1.8,3.0
CCC(=O)N[C@H]1C=C[C@H](CC(=O)NCc2cc(F)cc(F)c2)O[C@H]1CO,19.0,-0.2,0.7,-3.8,-0.1,/
CO[C@H]1CN(C)C(=O)c2ccc(NC(=O)NC(C)C)cc2OC[C@@H](C)N(CC2CC2)C[C@@H]1C,4.4,0.1,2.7,-14.0,1.3,/

# An excerpt from above in order of their number in ERp5 block, rising.
Structure,ERp5 block
COc1ccc(S(=O)(=O)N2CCN(C(=S)NC3CCCCC3)CC2)cc1,-6.7
COc1cc(C2NCCc3c2[nH]c2ccccc32)ccc1OC(C)C (stereo not given),1.1
CCC(=O)N[C@H]1C=C[C@H](CC(=O)NCc2cc(F)cc(F)c2)O[C@H]1CO,19.0

# Given with values under each structure: entries from further up.
# Sequence of screens: ERp5 block | FGF22 binding | UUG fidelity | ARNT-TACC3 inh | PglD inh | PDI inh
CCOc1ccc(Nc2nc(N)nc(CN3CCN(c4ccccc4F)CC3)n2)cc1
    0.2 | 43.7* | -26.3 | 10.6 | / | 0.1
COc1ccc(N2CCN(Cc3nc(N)nc(Nc4ccccc4OC)n3)CC2)cc1
    / | / | -3.7 | 49.8* | 1.8 | 3.0
